ChEMBL document CHEMBL1140130, “Identification of 4-(2-(4-amino-1,2,5-oxadiazol-3-yl)-1-ethyl-7-{[(3S)-3-piperidinylmethyl]oxy}-1H-imidazo[4,5-c]pyridin-4-yl)-2-methyl-3-butyn-2-ol (GSK690693), a novel inhibitor of AKT kinase” (J Med Chem, 2008)

Chains of the proteins cited; added tags and fusions are not shown. Lines headed by an entry give the natural chain unless they say otherwise; changes in a name come on top.
UniProt P31749: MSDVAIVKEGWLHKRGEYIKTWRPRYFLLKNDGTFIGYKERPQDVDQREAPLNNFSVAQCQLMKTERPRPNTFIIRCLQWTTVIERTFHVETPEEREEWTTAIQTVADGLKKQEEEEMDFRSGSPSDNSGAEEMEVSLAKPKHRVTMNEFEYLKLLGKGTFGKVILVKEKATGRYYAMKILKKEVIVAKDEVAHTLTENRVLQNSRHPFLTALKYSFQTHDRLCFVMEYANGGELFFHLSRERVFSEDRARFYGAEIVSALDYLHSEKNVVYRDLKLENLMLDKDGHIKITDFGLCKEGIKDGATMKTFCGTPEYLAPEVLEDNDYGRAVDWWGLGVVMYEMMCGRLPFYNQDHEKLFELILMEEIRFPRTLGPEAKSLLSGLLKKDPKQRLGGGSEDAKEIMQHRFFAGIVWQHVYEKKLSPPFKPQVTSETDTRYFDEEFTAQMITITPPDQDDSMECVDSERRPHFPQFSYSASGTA
UniProt Q9Y243: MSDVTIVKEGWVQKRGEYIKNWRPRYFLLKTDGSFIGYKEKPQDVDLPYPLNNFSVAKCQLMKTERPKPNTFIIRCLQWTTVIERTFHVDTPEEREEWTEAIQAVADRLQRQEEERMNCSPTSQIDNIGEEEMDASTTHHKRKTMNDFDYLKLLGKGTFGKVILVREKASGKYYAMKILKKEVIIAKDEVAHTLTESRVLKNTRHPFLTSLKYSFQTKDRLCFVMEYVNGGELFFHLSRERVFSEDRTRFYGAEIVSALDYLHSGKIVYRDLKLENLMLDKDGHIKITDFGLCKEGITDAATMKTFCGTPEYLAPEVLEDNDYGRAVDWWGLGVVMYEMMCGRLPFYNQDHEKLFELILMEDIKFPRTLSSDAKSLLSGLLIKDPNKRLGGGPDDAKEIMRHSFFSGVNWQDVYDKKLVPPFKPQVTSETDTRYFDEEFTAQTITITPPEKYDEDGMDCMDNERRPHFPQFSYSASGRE

Columns and labels:
[1] = molecular target: T1, RAC-alpha serine/threonine-protein kinase (Homo sapiens, UniProt P31749)
[2] = molecular target: T1, RAC-alpha serine/threonine-protein kinase; remark: listed apart in the source
[3] = molecular target: RAC-gamma serine/threonine-protein kinase (Homo sapiens, UniProt Q9Y243)

IC50 [1] [µM] | IC50 [2] [µM] | SMILES | IC50 [3] [µM]
1.51 | 0.009 | CCn1c(-c2nonc2N)nc2c(C#CC(C)(C)O)ncc(OCCCCN)c21 | –
– | – | CCn1c(-c2nonc2N)nc2cncc(C(=O)NC3CCNCC3)c21 | 2.29
